Where two headings read alike, the source gives them in different places.
Settings: 10 μM protein

maltose binding protein [MBP]
Tm (10 mM sodium phosphate pH 8.0, no maltose): 53.9 ± 0.7 °C
Tm (+ 1 mM maltose): 61.0 ± 0.8 °C
